Experiment [1] can be described thus: compounds raising F508del-CFTR protein level – cell-based, HeLa F508del-CFTR, immunofluorescence, viability, primary screen (AID 1224863).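 For fold increase: total CFTR protein by anti-CFTR immunofluorescence in fixed cells.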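 For max fold increase: total CFTR protein by anti-CFTR immunofluorescence in fixed cells.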 As to conditions: immunofluorescence total CFTR, 24 h, stronger effect = higher value; min viability: measured here: HeLa viability, alamarBlue, dose 20, library dosed in µg/mL unless noted; viability: measured here: primary viability 10 ug/mL, library dosed in µg/mL unless noted. For orientation: Resazurin is reduced to fluorescent resorufin, in cell work by metabolically active cells.

Sequences of proteins named here, by UniProt entry; tags and fusion partners are left off. A line that says so, or that is headed by a name, gives the form on record, which may keep a tag or linker.
UniProt P13569, with tags, fused parts or gaps F508del: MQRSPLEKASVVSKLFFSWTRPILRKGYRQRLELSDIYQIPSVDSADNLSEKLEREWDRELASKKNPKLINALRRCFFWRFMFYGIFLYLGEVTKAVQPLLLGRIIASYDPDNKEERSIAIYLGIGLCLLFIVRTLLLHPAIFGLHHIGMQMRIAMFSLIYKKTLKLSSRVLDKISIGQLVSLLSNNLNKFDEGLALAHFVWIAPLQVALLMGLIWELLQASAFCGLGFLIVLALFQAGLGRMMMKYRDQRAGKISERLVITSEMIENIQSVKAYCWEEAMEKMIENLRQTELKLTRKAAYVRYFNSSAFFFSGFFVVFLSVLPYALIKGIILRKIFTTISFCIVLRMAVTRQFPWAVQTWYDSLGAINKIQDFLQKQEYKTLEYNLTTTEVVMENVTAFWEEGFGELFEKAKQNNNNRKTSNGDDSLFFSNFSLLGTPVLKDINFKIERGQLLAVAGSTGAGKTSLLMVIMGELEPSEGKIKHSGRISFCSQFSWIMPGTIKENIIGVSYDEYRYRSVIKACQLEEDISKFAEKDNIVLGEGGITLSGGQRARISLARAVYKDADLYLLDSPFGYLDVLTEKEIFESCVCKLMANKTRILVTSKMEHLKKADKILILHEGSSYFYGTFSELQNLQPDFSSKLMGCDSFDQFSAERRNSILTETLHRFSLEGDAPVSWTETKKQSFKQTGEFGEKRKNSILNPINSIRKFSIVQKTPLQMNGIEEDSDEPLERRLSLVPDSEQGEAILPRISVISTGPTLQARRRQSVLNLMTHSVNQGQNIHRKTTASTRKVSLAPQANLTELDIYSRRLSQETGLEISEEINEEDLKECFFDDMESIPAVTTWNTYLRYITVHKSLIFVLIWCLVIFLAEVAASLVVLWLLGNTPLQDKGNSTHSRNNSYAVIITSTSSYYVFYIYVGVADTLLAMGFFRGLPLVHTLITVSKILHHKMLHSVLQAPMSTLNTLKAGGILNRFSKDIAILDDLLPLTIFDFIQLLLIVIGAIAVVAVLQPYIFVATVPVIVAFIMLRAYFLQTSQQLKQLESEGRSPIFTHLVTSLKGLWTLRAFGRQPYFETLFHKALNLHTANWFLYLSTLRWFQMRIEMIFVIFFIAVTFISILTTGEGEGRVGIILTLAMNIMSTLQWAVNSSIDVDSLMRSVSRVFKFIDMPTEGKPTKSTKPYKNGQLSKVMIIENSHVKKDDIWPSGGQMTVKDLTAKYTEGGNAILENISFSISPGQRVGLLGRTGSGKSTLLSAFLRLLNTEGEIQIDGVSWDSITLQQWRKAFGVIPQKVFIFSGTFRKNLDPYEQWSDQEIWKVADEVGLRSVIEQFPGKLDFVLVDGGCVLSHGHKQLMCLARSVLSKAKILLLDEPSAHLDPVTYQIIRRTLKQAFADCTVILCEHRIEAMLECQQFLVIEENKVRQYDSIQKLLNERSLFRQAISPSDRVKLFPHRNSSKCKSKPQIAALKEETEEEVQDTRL

The target of experiment [2] is Cystic fibrosis transmembrane conductance regulator (Homo sapiens) (UniProt P13569). Described as above. As to conditions: immunofluorescence total CFTR, 24 h; fold increase: measured here: primary screen 10 ug/mL, library dosed in µg/mL, stronger effect = higher value unless noted; max fold increase: dose 10, library dosed in µg/mL, stronger effect = higher value unless noted; outcome: library dosed in µg/mL unless noted.

The campaign covered roughly 10,000 compounds. About 15 (0.1%) were called active.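 Rule for the calls: active = highest signal at least 8 times the median of untreated cell-only control wells at some dose; inactive = the rest.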 These entries were drawn from the full list.

We go through 36 molecules from PubChem BioAssay AID1224863 (Southern Research Institute, 2016).

As a reminder, the viability is a read-out of living cells in per cent, often relative to untreated cells. `CN1CCN(S(=O)(=O)c2ccc(Sc3ccc(Br)cc3)nc2)CC1`: the viability in experiment [1] was 79%. In addition, in experiment [2], the fold increase was determined as 0.92 and the molecule was classed as inactive.
Regarding `CCCNC(=O)C(C)NC(=O)Cc1c(C)nc2nc(N)nn2c1C` (stereo not given), in experiment [1], the viability stood at 99%. In experiment [2], the fold increase is 1.14 and the molecule was classed as inactive.
Turning to `Cc1nn2c(nc(NC3CCCN(C)C3)c3ccccc32)c1Cl` (stereo not given), in experiment [1], the min viability was 70.3% [measured here: HeLa viability, alamarBlue, dose 10, library dosed in µg/mL] and the viability is 72%. Besides, in experiment [2], the fold increase came to 2.03 and the max fold increase is 1.32 [dose 0.039, library dosed in µg/mL, stronger effect = higher value] (inactive).
For the molecule `O=c1oc2ccccc2n1CN1CCCC(O)C1` (stereo not given), the viability in experiment [1] was determined as 85%. For the same molecule, in experiment [2], the fold increase stood at 0.95 and the call was inactive.
Take `O=[N+]([O-])c1cc2c(c(CSc3nnnn3-c3ccc(Cl)cc3)c1)OCOC2`: the viability in experiment [1] turned out to be 91%. Further, in experiment [2], the fold increase is 1.01 and the call was inactive.
In the case of `CN(Cc1nc2ccsc2c(=O)[nH]1)C(=O)CCc1nnc(-c2ccsc2)o1`, the viability in experiment [1] stood at 87%. Further, in experiment [2], the fold increase stood at 1.17 and the molecule was classed as inactive.
For `N#Cc1c(/C=C/c2ccc3c(c2)OCCO3)cc(-c2cccc(Cl)c2)n2c1nc1ccccc12`, in that order: 99%, 1.16 and “inactive”.
In the same order, the values of `CC(C)CN1CC(C(=O)Nc2ccc3c(c2)OC2(CCCC2)O3)CC1=O` (stereo not given) are 83%, 1.08 and “inactive”.
As to `O=C(OCc1cc(Cl)c2c(c1)OCO2)c1ccco1`, the viability in experiment [1] was 90%. Also, in experiment [2], the fold increase turned out to be 0.99 and the molecule was classed as inactive.
Take `O=C(Cn1ncc(Cl)c(Cl)c1=O)N1CCNC1=O`: in experiment [1], the min viability was 70% and the viability came out at 78%. In experiment [2], the fold increase was 1.56 and the max fold increase was 3.11 (inactive).
As for `CCOCCCNc1sc(S(C)(=O)=O)nc1S(=O)(=O)c1ccc(C)cc1`, the viability in experiment [1] is 93%. Also, in experiment [2], the fold increase amounted to 1.05 and the molecule was classed as inactive.
Take `CC(C#N)Sc1nnnn1-c1ccc(Cl)cc1` (stereo not given): in experiment [1], the viability worked out at 98%. Further, in experiment [2], the fold increase amounted to 0.96 and the molecule was called inactive.
For `C=CCOc1ccccc1/C=C(/C#N)c1nc(N)nc(N(C)C)n1`, in experiment [1], the viability turned out to be 85%. Further, in experiment [2], the fold increase is 1.09 and the outcome was inactive.
As for `N#Cc1ccc(/C=C2\CSc3ccccc3C2=O)cc1`, in experiment [1], the viability was determined as 56%. Moreover, in experiment [2], the fold increase came out at 0.79 and the call was inactive.
With `CC1(c2ccc3c(c2)OCO3)NC(=O)N(Cc2ccc3c(c2)OCO3)C1=O` (stereo not given), the viability in experiment [1] was 100%. In addition, in experiment [2], the fold increase was found to be 0.99 and the outcome was inactive.
For `CS(=O)(=O)NC1CCN(CC(=O)NC2CC2)CC1`, in that order: 105%, 1.17 and “inactive”.
With `S=c1n(CN(C2CCCC2)C2CC2)nc(N2CCOCC2)n1-c1ccccc1`, the viability in experiment [1] was determined as 102%. Further, in experiment [2], the fold increase came to 1.03 and the outcome was inactive.
For `CC(C)N1C(=O)c2ccc(C(=O)Nc3ccc(I)cc3)cc2S1(=O)=O`, in that order: 92%, 0.96 and “inactive”.
For `Cc1cnc(NC(=O)COCC2CC2)s1`, in that order: 100%, 1.01 and “inactive”.
For `CCN1C(=O)c2ccccc2N2C(=O)CCC12C(=O)NC(C)c1ccc(F)cc1` (stereo not given), in that order: 97%, 0.96 and “inactive”.
Take `CCC(C)(C)NCC(=O)N1c2ccccc2NC(=O)C1(C)C`: in experiment [1], the viability worked out at 93%. In addition, in experiment [2], the fold increase was determined as 1.11 and the outcome was inactive.
For `NC(=O)C1CCCN1S(=O)(=O)c1ccc(Cl)s1` (stereo not given), in that order: 97%, 1.06 and “inactive”.
In the case of `Cn1ncc2c(NCC(=O)NC(C)(C)C)ncnc21`, the viability in experiment [1] was determined as 91%. Moreover, in experiment [2], the fold increase is 1.05 and the outcome was inactive.
In the same order, the values of `CS(=O)(=O)c1ccc(Oc2ccc3c(c2)OCCO3)c([N+](=O)[O-])c1` are 92%, 0.98 and “inactive”.
On to `CCn1c(SCCS(=O)(=O)c2ccc(Br)cc2)nc2ccccc21`, for which the viability in experiment [1] was 74%. For the same molecule, in experiment [2], the fold increase was found to be 0.65 and the call was inactive.
In the same order, the values of `CN1CCN(C(=O)C2CCN(C(=O)OCC(F)(F)F)CC2)c2nc3ccccc3nc21` are 85%, 0.99 and “inactive”.
In the same order, the values of `CN(C)S(=O)(=O)N1CCN(Cc2ccccc2CN2CCN(S(=O)(=O)N(C)C)CC2)CC1` are 94%, 0.9 and “inactive”.
For `CS(=O)(=O)NC1CCCN(c2nc(-c3ccccc3)nc3ccccc23)C1` (stereo not given), in experiment [1], the viability was 91%. In experiment [2], the fold increase was found to be 0.95 and the molecule was called inactive.
For `COc1cc(OC)cc(-c2nnc(SCCc3ccccc3)o2)c1`, in that order: 105%, 0.99 and “inactive”.
For `FC(F)(F)c1cnc(Nc2ccc3c(c2)OCCO3)c(Cl)c1`, in that order: 81%, 0.98 and “inactive”.
For `CC1CCC2(CC1)NC(=O)N(CN1CCC(C(=O)c3ccc4c(c3)OCCO4)CC1)C2=O` (stereo not given), in that order: 97%, 1.04 and “inactive”.
Regarding `O=C(OCCOc1ccc(Br)cc1)C1(c2cccc(F)c2)CCCC1`, the viability in experiment [1] amounted to 77%. In addition, in experiment [2], the fold increase came out at 0.97 and the outcome was inactive.
For `C=CCn1c(C)cc(-c2csc(NC(=O)C3CC3)n2)c1C`, in that order: 93%, 1.02 and “inactive”.
Turning to `Cn1cc(C#N)c(=O)n(CC(=O)Nc2sccc2C(N)=O)c1=O`, the viability in experiment [1] was 104%. In experiment [2], the fold increase came out at 1.07 and the molecule was classed as inactive.
On to `O=S(=O)(Nc1ccc(Cl)c(S(=O)(=O)N2CCOCC2)c1)c1ccc2ccccc2c1`, for which, in experiment [1], the viability came to 93%. In addition, in experiment [2], the fold increase is 1.11 and the outcome was inactive.
On to `Cc1cc(C(=O)COc2cc(C(F)(F)F)cc(C(F)(F)F)c2)c(C)n1Cc1ccc2c(c1)OCO2`, for which the viability in experiment [1] was 90%. Further, in experiment [2], the fold increase was found to be 1.11 and the molecule was classed as inactive.
